Reference: PubChem BioAssay AID588352 (The Scripps Research Institute Molecular Screening Center, 2011)
Only a part is listed here, and it is no random draw. The source made the active and inactive calls.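 Rule for the calls: active = inhibition above a per-campaign cutoff, the mean of all compounds plus 3 SD (cut at about 60% in these data); inactive = the rest.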

Protein sequences, listed by entry. Tags and fused reporters are not part of them.
UniProt Q9Y6Q9, whole entry: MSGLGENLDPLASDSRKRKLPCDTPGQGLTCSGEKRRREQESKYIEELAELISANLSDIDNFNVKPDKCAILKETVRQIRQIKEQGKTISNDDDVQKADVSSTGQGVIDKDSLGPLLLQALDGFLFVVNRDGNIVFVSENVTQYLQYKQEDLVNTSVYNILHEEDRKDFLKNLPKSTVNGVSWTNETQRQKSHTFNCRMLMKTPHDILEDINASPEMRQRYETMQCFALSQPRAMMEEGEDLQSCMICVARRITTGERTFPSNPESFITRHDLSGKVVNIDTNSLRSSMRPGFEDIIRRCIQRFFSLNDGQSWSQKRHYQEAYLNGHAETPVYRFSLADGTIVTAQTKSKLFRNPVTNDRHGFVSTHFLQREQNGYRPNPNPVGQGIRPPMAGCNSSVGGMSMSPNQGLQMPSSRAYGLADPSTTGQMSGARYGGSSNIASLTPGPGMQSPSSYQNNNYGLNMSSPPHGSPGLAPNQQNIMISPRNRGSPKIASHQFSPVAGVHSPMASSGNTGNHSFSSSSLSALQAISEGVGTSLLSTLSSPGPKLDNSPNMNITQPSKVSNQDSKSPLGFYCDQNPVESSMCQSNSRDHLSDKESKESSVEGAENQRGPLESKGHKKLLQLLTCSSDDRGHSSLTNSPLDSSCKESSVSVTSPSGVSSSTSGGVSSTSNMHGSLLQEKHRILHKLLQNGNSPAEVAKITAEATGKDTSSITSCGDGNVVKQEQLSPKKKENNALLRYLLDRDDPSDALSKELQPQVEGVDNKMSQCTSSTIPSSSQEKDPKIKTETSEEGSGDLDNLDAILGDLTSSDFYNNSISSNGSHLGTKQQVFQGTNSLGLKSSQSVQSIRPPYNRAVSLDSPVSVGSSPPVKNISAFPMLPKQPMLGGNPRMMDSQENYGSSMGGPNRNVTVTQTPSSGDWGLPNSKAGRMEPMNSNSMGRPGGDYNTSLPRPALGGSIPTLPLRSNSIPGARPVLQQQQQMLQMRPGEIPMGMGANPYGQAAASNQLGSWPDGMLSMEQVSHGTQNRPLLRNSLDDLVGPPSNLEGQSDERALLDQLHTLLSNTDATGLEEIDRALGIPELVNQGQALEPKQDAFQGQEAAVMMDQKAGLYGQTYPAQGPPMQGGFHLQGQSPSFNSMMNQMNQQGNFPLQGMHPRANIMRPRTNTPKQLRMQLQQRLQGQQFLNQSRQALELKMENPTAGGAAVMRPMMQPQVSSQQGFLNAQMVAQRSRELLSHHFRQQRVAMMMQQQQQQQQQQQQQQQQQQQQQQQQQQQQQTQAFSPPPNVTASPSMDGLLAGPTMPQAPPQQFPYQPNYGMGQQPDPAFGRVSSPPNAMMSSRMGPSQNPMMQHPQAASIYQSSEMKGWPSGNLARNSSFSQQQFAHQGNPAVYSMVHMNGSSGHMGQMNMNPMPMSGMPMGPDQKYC

Each compound was assayed against Nuclear receptor coactivator 3 (Homo sapiens) (UniProt Q9Y6Q9) (assay: NCOA3 GAL4-fusion reporter inhibition – cell-based, luminescence, primary screen (AID 588352;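 note: 0% = DMSO-treated cells and 100% = gossypol-treated cells at 36 µM; higher means less SRC3-driven luciferase light from the GAL4 reporter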)). Conditions: HEK293 GAL4-SRC3 luciferase reporter, at 3.6 µM, active compounds read high.
In the case of `Cc1c(NP(C)(=O)Oc2ccc(C(C)C)cc2)c(=O)n(-c2ccccc2)n1C` (stereo not drawn), the inhibition is reported as inactive: 6.83%. With `COc1ccccc1OP(C)(=O)Nc1ccc(C)cc1C` (stereo not drawn) the inhibition was inactive: 2.15%. For `CP(=O)(Nc1ccccn1)Oc1ccccc1` (stereo not drawn), the inhibition was inactive: 7.49%. `CCc1ccc(OP(C)(=O)O)cc1` was tested, and the inhibition was inactive: 6.06%. For `CCN(CC)CCCOC(=O)C(O)(c1ccccc1)c1ccccc1`, the inhibition was inactive: 4.53%. In the case of `O=[N+]([O-])c1cc([N+](=O)[O-])c(Nc2cccnc2)c([N+](=O)[O-])c1`, the inhibition is reported as inactive: 0.92%. In the case of `O=[N+]([O-])c1ccc2c(c1)C=Nc1ccccc1O2`, the inhibition is reported as inactive: 22.7%. For `Cc1cccc(C)c1OP(C)(N)=O` (stereo not drawn), the inhibition was inactive: 10.7%. `CC(C)(C)c1ccc(OP(C)(=O)Nc2ccc(SC(F)(F)F)cc2)cc1` (stereo not drawn) was tested, and the inhibition was inactive: 28.1%. In the case of `Cc1ccc(NP(C)(=O)Oc2ccccc2)c(C)c1` (stereo not drawn), the inhibition is reported as inactive: 5.93%. `COc1ccccc1OP(C)(=O)Nc1ccc(C)cc1` (stereo not drawn) was tested, and the inhibition was inactive: 11.4%. In the case of `CCOC(=O)c1ccc(NP(C)(=O)Oc2ccccc2)cc1` (stereo not drawn), the inhibition is reported as inactive: 28.8%. With `Cc1cc(C)cc(OP(C)(N)=O)c1` (stereo not drawn) the inhibition was inactive: 8.34%. `COc1ccc(OP(C)(=O)Nc2cccc(F)c2)cc1` (stereo not drawn) was tested, and the inhibition was inactive: -12%. `COc1ccccc1OP(C)(=O)Nc1cc(Cl)ccc1C` (stereo not drawn) was tested, and the inhibition was inactive: 6.84%. For `CP(=S)(Nn1cnnc1)Oc1ccccc1` (stereo not drawn), the inhibition was inactive: -1.88%. With `CP(=O)(Nc1ccccc1Br)Oc1ccccc1` (stereo not drawn) the inhibition was inactive: -6.14%. `COc1ccccc1OP(C)(=O)Nc1ccccc1` (stereo not drawn) was tested, and the inhibition was inactive: 6.69%. `CP(=O)(Oc1ccccc1)OC(c1ccccc1)C(F)(F)F` (stereo not drawn) was tested, and the inhibition was inactive: 3.3%. In the case of `CP(=O)(Nc1ccc(SC(F)(F)F)cc1)Oc1ccc(Cl)cc1` (stereo not drawn), the inhibition is reported as inactive: 7.72%. With `Cc1ccc(Nc2c([N+](=O)[O-])cc([N+](=O)[O-])cc2[N+](=O)[O-])cc1` the inhibition was inactive: -5.26%. In the case of `Cc1cccc(C)c1OP(C)(=O)Nc1ccc(SC(F)(F)F)cc1` (stereo not drawn), the inhibition is reported as inactive: -26.8%. `Cc1cc(C)cc(OP(C)(=O)Nc2ccc(SC(F)(F)F)cc2)c1` (stereo not drawn) was tested, and the inhibition was inactive: 12.9%. With `CCc1ccc(OP(C)(=O)N2CCN(c3ccc([N+](=O)[O-])cc3)CC2)cc1` (stereo not drawn) the inhibition was inactive: 8.29%. With `CP(=O)(NC(=O)Nc1ccccc1)Oc1ccccc1` (stereo not drawn) the inhibition was inactive: -4.61%. In the case of `O=[N+]([O-])c1cc([N+](=O)[O-])c(O)c([N+](=O)[O-])c1.c1ccc(Oc2ccncc2)cc1`, the inhibition is reported as inactive: 12.8%. For `CCOC(=O)c1ccc(NP(C)(=O)Oc2ccc(OC)cc2)cc1` (stereo not drawn), the inhibition was inactive: 9.96%. In the case of `CCOP(C)(=S)SCC(=O)NC(C)C(=O)O` (stereo not drawn), the inhibition is reported as inactive: -12.1%. For `CP(=O)(Nc1ccccn1)Oc1ccc(Cl)cc1` (stereo not drawn), the inhibition was inactive: 17.8%. `O=[N+]([O-])c1cc([N+](=O)[O-])c(-n2nnc3ccccc32)c([N+](=O)[O-])c1` was tested, and the inhibition was inactive: 13.6%. For `CN(Cc1cccnc1)C(=O)COc1ccc(Cl)c(Cl)c1.O=[N+]([O-])c1cc([N+](=O)[O-])c(O)c([N+](=O)[O-])c1`, the inhibition was inactive: 11.4%. `O=[N+]([O-])c1cc([N+](=O)[O-])c(-c2cnn(-c3ccccc3)c2)c([N+](=O)[O-])c1` was tested, and the inhibition was inactive: 12.2%. With `Cc1nc2ccc3ccccc3c2s1.O=[N+]([O-])c1cc([N+](=O)[O-])c(O)c([N+](=O)[O-])c1` the inhibition was inactive: -6.35%. For `CCOC(=O)C(CC)C1=NC(C)(C)Cc2ccccc21.O=[N+]([O-])c1cc([N+](=O)[O-])c(O)c([N+](=O)[O-])c1` (stereo not drawn), the inhibition was inactive: -7.64%. In the case of `O=[N+]([O-])c1cc([N+](=O)[O-])c(Nc2nnnn2CCO)c([N+](=O)[O-])c1`, the inhibition is reported as inactive: -19.6%. With `CC1=C2N=C(C=C3N=C(C(C)=C4[N-][C@@](C)([C@@H]5N=C1[C@](C)(CCC(=O)NC[C@@H](C)OP(=O)([O-])O[C@H]1[C@@H](O)[C@@H](n6cnc7cc(C)c(C)cc76)O[C@@H]1CO)[C@H]5CC(N)=O)[C@@](C)(CC(N)=O)[C@@H]4CCC(N)=O)[C@@](C)(CC(N)=O)[C@@H]3CCC(N)=O)C(C)(C)[C@@H]2CCC(N)=O.[C-]#N.[Co+3]` the inhibition was inactive: -7.96%. In the case of `CN1CCCCC1COC(=O)C1(O)c2ccccc2CCc2ccccc21` (stereo not drawn), the inhibition is reported as inactive: 0.47%. With `COc1ccccc1OP(C)(=O)Nc1c(C)cccc1C` (stereo not drawn) the inhibition was inactive: -17.1%. `CP(=O)(Nc1ccc(SC(F)(F)F)cc1)Oc1ccccc1` (stereo not drawn) was tested, and the inhibition was inactive: 15.8%. With `CCCOc1ccc(NP(C)(=O)Oc2ccc(Cl)cc2)cc1` (stereo not drawn) the inhibition was inactive: 2.28%. In the case of `O=C(O)c1cccc(Nc2c([N+](=O)[O-])cc([N+](=O)[O-])cc2[N+](=O)[O-])c1`, the inhibition is reported as inactive: -1.27%. With `CC1=NCCc2c1[nH]c1ccccc21.O=[N+]([O-])c1cc([N+](=O)[O-])c(O)c([N+](=O)[O-])c1` the inhibition was inactive: 0.85%. `COc1ccccc1OP(C)(=O)Nc1cccc(Br)c1` (stereo not drawn) was tested, and the inhibition was inactive: 14.2%. For `CCOC(=O)c1ccc(NP(C)(=O)Oc2cc(C)cc(C)c2)cc1` (stereo not drawn), the inhibition was inactive: 4.19%. `Cc1cc(C)cc(OP(C)(=O)Nc2ccc(C)cc2C)c1` (stereo not drawn) was tested, and the inhibition was inactive: 12.6%. For `Cc1ccc(C)c(NP(C)(=O)Oc2ccccc2)c1` (stereo not drawn), the inhibition was inactive: -2.56%. In the case of `CP(=O)(Nc1cccc(Br)c1)Oc1ccccc1` (stereo not drawn), the inhibition is reported as inactive: 15.6%. With `Cc1cc(C)cc(OP(C)(=O)Nc2ccccn2)c1` (stereo not drawn) the inhibition was inactive: 2.64%.
